As usually defined, the IC50 is the concentration needed to halve the response being measured.

Chains of the proteins cited; added tags and fusions are not shown. Residues count along the entry.
UniProt P22303, 32-614 limits assumed: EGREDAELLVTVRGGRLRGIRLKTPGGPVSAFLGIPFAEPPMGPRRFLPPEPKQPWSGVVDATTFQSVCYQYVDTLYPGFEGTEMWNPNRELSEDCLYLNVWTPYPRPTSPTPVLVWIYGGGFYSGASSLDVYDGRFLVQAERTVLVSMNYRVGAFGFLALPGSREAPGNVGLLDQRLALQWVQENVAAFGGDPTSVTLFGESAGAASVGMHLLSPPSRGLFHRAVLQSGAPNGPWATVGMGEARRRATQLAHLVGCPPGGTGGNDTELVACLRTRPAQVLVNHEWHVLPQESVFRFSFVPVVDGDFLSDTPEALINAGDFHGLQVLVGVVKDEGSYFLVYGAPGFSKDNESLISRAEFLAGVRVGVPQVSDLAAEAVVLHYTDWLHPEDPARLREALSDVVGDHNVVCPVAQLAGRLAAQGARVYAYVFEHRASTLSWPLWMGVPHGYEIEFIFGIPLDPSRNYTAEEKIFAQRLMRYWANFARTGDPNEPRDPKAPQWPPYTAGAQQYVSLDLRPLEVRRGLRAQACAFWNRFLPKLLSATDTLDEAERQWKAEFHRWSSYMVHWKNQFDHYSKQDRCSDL

SMILES strings stand for the structures.

For this assay, the target named is Acetylcholinesterase (Homo sapiens, UniProt P22303). The experiment in a line: Inhibition of human recombinant AChE by modified Ellman's method. For orientation: In Ellman's method for cholinesterases, released thiocholine reacts with DTNB.
In the case of `CC(=O)c1cc[n+](CCC[n+]2ccc(CN=O)cc2)cc1`, the IC50 is 105 µM. The value for `N=C(NO)c1cc[n+](CCC[n+]2ccc(CN=O)cc2)cc1` was 291 µM; that for `O=NCc1cc[n+](CCC[n+]2ccc(-c3ccccc3)cc2)cc1` was 112 µM.

For the origin of these results see BindingDB's records for 21215642.
